Results taken from PubChem BioAssay AID2650 (Broad Institute, 2010).
The entries are a selection whose mix differs from that of the whole data set. Calls of active or inactive are those of the source.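 The calls were made as follows: active = more than half of replicates show inhibition above 20%; inconclusive = some but at most half of replicates above 20% inhibition; inactive = no replicate shows inhibition above 20%.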

Amino acid sequences for entries named in this document (tags omitted). A change or cut given only in a name is not applied to a line headed by its entry.
UniProt P49840: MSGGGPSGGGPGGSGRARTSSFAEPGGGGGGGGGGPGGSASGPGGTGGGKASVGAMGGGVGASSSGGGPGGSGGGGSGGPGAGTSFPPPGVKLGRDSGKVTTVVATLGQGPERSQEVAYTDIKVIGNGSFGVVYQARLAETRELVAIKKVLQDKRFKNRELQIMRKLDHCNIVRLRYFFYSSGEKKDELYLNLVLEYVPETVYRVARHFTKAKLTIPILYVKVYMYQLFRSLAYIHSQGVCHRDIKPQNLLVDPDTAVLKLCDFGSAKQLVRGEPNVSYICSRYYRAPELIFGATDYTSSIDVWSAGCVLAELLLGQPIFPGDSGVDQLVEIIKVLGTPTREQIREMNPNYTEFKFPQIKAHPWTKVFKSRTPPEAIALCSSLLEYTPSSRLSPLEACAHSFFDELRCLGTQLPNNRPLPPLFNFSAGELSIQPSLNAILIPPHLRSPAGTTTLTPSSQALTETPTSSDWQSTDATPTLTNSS

target: Glycogen synthase kinase-3 alpha (Homo sapiens) (UniProt P49840); assay: blockers of GSK3A enzyme activity – biochemical, luminescence, cell-free homogeneous, HTS, primary screen (AID 2650); conditions: GSK-3 alpha kinase, ADP-Glo luminescence, 60 min; at 10 µM; hits give high values;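 also: GST-tagged GSK-3 alpha with peptide substrate and 25 µM ATP; 0% = DMSO neutral wells and 100% = GW8510 positive control wells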

**Q.** With O=C(Nc1cc([As](=O)(O)O)ccc1O)c1ccccc1 as the compound, how does the inhibition read?
**A.** The inhibition was inactive: -0.561%.

**Q.** For O=[N+]([O-])c1cccc(NC2=NCC(CBr)S2)c1 (centres undefined), which inhibition is on record?
**A.** Its inhibition is inactive: 18.4%.

**Q.** With O=C(O)CNc1ccc([As](=O)(O)O)cc1 as the compound, how does the inhibition read?
**A.** Its inhibition is inactive: -3.07%.

**Q.** How did the inhibition turn out when CC(C)(C)C(=O)NC(Sc1ccncn1)C(Cl)(Cl)Cl (centres undefined) was run?
**A.** The inhibition was inactive: -1.46%.

**Q.** How did the inhibition turn out when O=[N+]([O-])c1ncn(CCn2ncnc2[N+](=O)[O-])n1 was run?
**A.** Its inhibition is inactive: 0.224%.

**Q.** For CC(=O)N1C2C3N(C(C)=O)C1C1N(C(C)=O)C(C(N1C(C)=O)N3C(C)=O)N2C(C)=O, which inhibition is on record?
**A.** Its inhibition is inactive: -0.0273%.

**Q.** Which inhibition does the source give for O=[N+]([O-])c1cccc2n[nH]nc12 here?
**A.** The inhibition was inactive: -1.38%.

**Q.** For O=[N+]([O-])c1cc([N+](=O)[O-])c(CCNc2ccccc2)c([N+](=O)[O-])c1, which inhibition is on record?
**A.** The inhibition was inactive: -2.19%.

**Q.** How did the inhibition turn out when CCc1nc2c(n1)c1c(non1O)c1c2no[n+]1[O-] was run?
**A.** Its inhibition is inactive: 46.5%.

**Q.** For Cc1ccc(NP(=O)(Oc2ccccc2)Oc2ccccc2)nc1, which inhibition is on record?
**A.** Its inhibition is inactive: -0.447%.

**Q.** For COc1ccc(C2=NCC(CBr)S2)cc1 (centres undefined), which inhibition is on record?
**A.** The inhibition was inactive: -2.38%.

**Q.** For CN(C)C(=O)OCCc1n(C)cc[n+]1C, which inhibition is on record?
**A.** Its inhibition is inactive: -0.346%.

**Q.** For CC(C)=N/N=C(\N)N[N+](=O)[O-], which inhibition is on record?
**A.** The inhibition was inactive: 1.83%.

**Q.** With C[N+]1=C2C=CC=CC=C2SC12C([N+](=O)[O-])=CC([N+](=O)[O-])=C[C-]2[N+](=O)[O-] (centres undefined) as the compound, how does the inhibition read?
**A.** Its inhibition is inactive: 3.79%.

**Q.** How did the inhibition turn out when Nc1ccc([As](=O)(O)c2ccc(N)cc2)cc1 was run?
**A.** The inhibition was inactive: -1.21%.

**Q.** CCN(/C(=N/P(=O)(N1CCOCC1)N1CCOCC1)N1CCOCC1)c1ccc(OC)cc1 was tested. Which inhibition did it give?
**A.** The inhibition was inactive: 0.444%.

**Q.** Cc1ccc(OP(=O)(Nc2nccs2)Oc2ccc(C)cc2)cc1 was tested. Which inhibition did it give?
**A.** Its inhibition is inactive: -2.16%.

**Q.** With COc1ccccc1OP(=O)(Nc1ccc(C)cn1)Oc1ccccc1OC as the compound, how does the inhibition read?
**A.** The inhibition was inactive: -3.76%.

**Q.** Which inhibition does the source give for Clc1ccc(Cl)c(NC2=NCC(CBr)S2)c1 (centres undefined) here?
**A.** Its inhibition is inactive: -0.586%.

**Q.** Which inhibition does the source give for CN1CCCC(OC(=O)C(c2ccccc2)c2ccccc2)C1 (centres undefined) here?
**A.** The inhibition was inactive: -28.2%.

**Q.** Which inhibition does the source give for NC(=O)c1cc([N+](=O)[O-])cc([N+](=O)[O-])c1N here?
**A.** Its inhibition is inactive: 1.11%.

**Q.** With Cc1ccc(N/C(=N/P(=O)(N2CCOCC2)N2CCOCC2)N2CCOCC2)cc1 as the compound, how does the inhibition read?
**A.** Its inhibition is inactive: -1.21%.

**Q.** Which inhibition does the source give for CN(C(=O)Cc1ccc(Cl)c(Cl)c1)[C@H]1CCCC[C@H]1N1CCCC1 here?
**A.** The inhibition was inactive: 2.99%.

**Q.** For CC(C)CC(=O)NC(Sc1ccc(Cl)cc1)C(Cl)(Cl)Cl (centres undefined), which inhibition is on record?
**A.** The inhibition was inactive: -0.179%.

**Q.** For Nc1cc(N)c2nonc2c1[N+](=O)[O-], which inhibition is on record?
**A.** The inhibition was inactive: 1.46%.

**Q.** Which inhibition does the source give for Cc1c2non([O-])c-2c(C)[n+](=O)[n+]1[O-] here?
**A.** The inhibition was inactive: -1.91%.

**Q.** With O=C(NC(Sc1ccncn1)C(Cl)(Cl)Cl)c1ccccc1 (centres undefined) as the compound, how does the inhibition read?
**A.** Its inhibition is inactive: -0.936%.

**Q.** With Oc1ccccc1CNc1ccccn1 as the compound, how does the inhibition read?
**A.** The inhibition was inactive: -5.94%.

**Q.** For CN(C(=O)Cc1ccc(Cl)c(Cl)c1)[C@H]1CCCC[C@@H]1N1CCCC1, which inhibition is on record?
**A.** The inhibition was inactive: 0.354%.

**Q.** For Cc1ccc(NP(=O)(Oc2ccccc2F)Oc2ccccc2F)nc1, which inhibition is on record?
**A.** The inhibition was inactive: -1.68%.

**Q.** With CCOP(=O)(Nc1ccccc1)OCC as the compound, how does the inhibition read?
**A.** The inhibition was inactive: 5.03%.

**Q.** Which inhibition does the source give for Cc1cc(SC(NC(=O)c2ccc(F)cc2)C(Cl)(Cl)Cl)ncn1 (centres undefined) here?
**A.** The inhibition was inactive: -1.84%.

**Q.** For O=C(O)c1ccccc1[As](=O)(O)O, which inhibition is on record?
**A.** Its inhibition is inactive: -2.27%.

**Q.** How did the inhibition turn out when CC(=O)Nc1ccc([As](=O)(O)O)cc1 was run?
**A.** The inhibition was inactive: -1.33%.

**Q.** For O=P(Nc1nc2ccc(Cl)cc2s1)(c1ccccc1)c1ccccc1, which inhibition is on record?
**A.** The inhibition was inactive: -0.488%.

**Q.** Which inhibition does the source give for CCN(N=Nc1nonc1N)c1nonc1N here?
**A.** Its inhibition is inactive: 4.04%.

**Q.** Nc1cccc2ccc([As](=O)(O)O)cc12 was tested. Which inhibition did it give?
**A.** The inhibition was inactive: 0.112%.

**Q.** How did the inhibition turn out when O=[N+]([O-])c1cc([N+](=O)[O-])c(CCN2CCOCC2)c([N+](=O)[O-])c1 was run?
**A.** The inhibition was inactive: 2.7%.

**Q.** O=C(NC1CCS(=O)(=O)C1)NP(=S)(Oc1ccccc1)Oc1ccccc1 (centres undefined) was tested. Which inhibition did it give?
**A.** Its inhibition is inactive: 1.13%.

**Q.** For CCNC(=S)/N=C(\N)N[N+](=O)[O-], which inhibition is on record?
**A.** The inhibition was inactive: -0.636%.

**Q.** Cc1ccc(NP(=O)(Oc2cccc(C)c2)Oc2cccc(C)c2)nc1 was tested. Which inhibition did it give?
**A.** Its inhibition is inactive: -5.94%.

**Q.** For CCOC(=O)NC(Sc1ccccc1)C(Cl)(Cl)Cl (centres undefined), which inhibition is on record?
**A.** The inhibition was inactive: 1.55%.

**Q.** For c1ccc(-c2nn[nH]n2)c(-c2nn[nH]n2)c1, which inhibition is on record?
**A.** The inhibition was inactive: -0.514%.

**Q.** With CN(C)C(=O)Oc1noc2ccccc12 as the compound, how does the inhibition read?
**A.** Its inhibition is inactive: 2.34%.

**Q.** How did the inhibition turn out when Cc1ccccc1OP(=O)(Nc1ccccn1)Oc1ccccc1C was run?
**A.** The inhibition was inactive: -0.183%.

**Q.** For CC(NC(=O)COC(=O)C(O)(c1ccccc1)c1ccccc1)c1ccccc1 (centres undefined), which inhibition is on record?
**A.** Its inhibition is inactive: -0.858%.

**Q.** For CC(=O)NC(SC(=S)N(CC(C)C)CC(C)C)C(Cl)(Cl)Cl (centres undefined), which inhibition is on record?
**A.** The inhibition was inactive: -0.764%.

**Q.** Cc1ccc(OP(=O)(Nc2ccccn2)Oc2ccc(C)cc2)cc1 was tested. Which inhibition did it give?
**A.** The inhibition was inactive: 1.21%.

**Q.** COC(=O)c1cc2c(s1)N=C(c1ccccc1)N(C)P2(=O)N1CCOCC1 (centres undefined) was tested. Which inhibition did it give?
**A.** The inhibition was inactive: 0.564%.

**Q.** CCC(=O)N1C2C3N(C(=O)CC)C1C1N(C(=O)CC)C(C(N1C(=O)CC)N3C(=O)CC)N2C(=O)CC was tested. Which inhibition did it give?
**A.** Its inhibition is inactive: -0.975%.

**Q.** For O=C(OC1CN2CCC1CC2)c1ccccc1 (centres undefined), which inhibition is on record?
**A.** Its inhibition is inactive: 0.41%.

**Q.** CC(C)(C)C(=O)NC(Sc1ccccc1)C(Cl)(Cl)Cl (centres undefined) was tested. Which inhibition did it give?
**A.** The inhibition was inactive: -1.68%.

**Q.** CCOc1ccc(C2=NCC(CBr)S2)cc1 (centres undefined) was tested. Which inhibition did it give?
**A.** Its inhibition is inactive: -1.12%.

**Q.** O=P1(Nc2nc3ccc(Cl)cc3s2)COc2ccccc2O1 (centres undefined) was tested. Which inhibition did it give?
**A.** Its inhibition is inactive: 3.73%.

**Q.** With CC(=O)Nc1ccc(Oc2c([N+](=O)[O-])cc([N+](=O)[O-])cc2[N+](=O)[O-])cc1 as the compound, how does the inhibition read?
**A.** Its inhibition is inactive: -1.36%.

**Q.** For CC(=O)Nc1ccc([As](=O)(O)O)c(O)c1, which inhibition is on record?
**A.** Its inhibition is inactive: -0.465%.

**Q.** How did the inhibition turn out when CC(=O)c1ccc(N2CC2c2ccncc2)cc1 (centres undefined) was run?
**A.** The inhibition was inactive: -0.0541%.

**Q.** For C[C@@H]1C=CCP(=O)(Oc2ccccc2)O1 (some centres undefined), which inhibition is on record?
**A.** The inhibition was inactive: -2.72%.

**Q.** Which inhibition does the source give for C[C@H]1OP(=O)(Oc2ccccc2)C[C@@H]2O[C@@H]21 (some centres undefined) here?
**A.** The inhibition was inactive: -1.41%.

**Q.** How did the inhibition turn out when c1nnnn1CCn1cnnn1 was run?
**A.** The inhibition was inactive: -0.82%.

**Q.** O=P(Nc1nccs1)(c1ccccc1)c1ccccc1 was tested. Which inhibition did it give?
**A.** The inhibition was inactive: -1.57%.

**Q.** For CC(C)C(=O)NC(Sc1ccccc1)C(Cl)(Cl)Cl (centres undefined), which inhibition is on record?
**A.** Its inhibition is inactive: -1.86%.

**Q.** With C[C@H]1OP(=O)(Oc2ccccc2)[C@H](O)[C@H](O)[C@H]1N=[N+]=[N-] (some centres undefined) as the compound, how does the inhibition read?
**A.** Its inhibition is inactive: -1.5%.

**Q.** O=P(Nc1nc2ccccc2s1)(c1ccccc1)c1ccccc1 was tested. Which inhibition did it give?
**A.** Its inhibition is inactive: -2.1%.
